Measurements taken from ChEMBL document CHEMBL5506012, “Targeting Myeloid Leukemia-1 in Cancer Therapy: Advances and Directions” (J Med Chem, 2024).

The chains behind the UniProt entries cited, without tags or fusion partners.
UniProt P10415, whole entry: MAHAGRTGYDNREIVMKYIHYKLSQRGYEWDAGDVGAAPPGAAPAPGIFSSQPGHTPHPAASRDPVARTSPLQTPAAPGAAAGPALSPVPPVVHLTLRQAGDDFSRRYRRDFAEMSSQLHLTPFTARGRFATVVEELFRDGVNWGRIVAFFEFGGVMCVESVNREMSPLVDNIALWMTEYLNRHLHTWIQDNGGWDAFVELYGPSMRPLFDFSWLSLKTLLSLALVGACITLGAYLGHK

Target: Apoptosis regulator Bcl-2 (Homo sapiens, UniProt P10415)
Assay: Binding affinity to human recombinant Bcl-2 assessed as inhibition constant by fluorescence polarization assay

Ki: < 1 nM
SMILES: CC1(C)CCC(c2ccc(Cl)cc2)=C(CN2CCN(c3ccc(C(=O)NS(=O)(=O)c4ccc(N[C@H](CCN5CCOCC5)CSc5ccccc5)c(S(=O)(=O)C(F)(F)F)c4)cc3)CC2)C1 [NAVITOCLAX]
